Values of other authors, collected in PMC8405992.

By UniProt entry, the sequences of proteins in these tests, tags left out. Residues count along the entry.
UniProt P38764, 391-642: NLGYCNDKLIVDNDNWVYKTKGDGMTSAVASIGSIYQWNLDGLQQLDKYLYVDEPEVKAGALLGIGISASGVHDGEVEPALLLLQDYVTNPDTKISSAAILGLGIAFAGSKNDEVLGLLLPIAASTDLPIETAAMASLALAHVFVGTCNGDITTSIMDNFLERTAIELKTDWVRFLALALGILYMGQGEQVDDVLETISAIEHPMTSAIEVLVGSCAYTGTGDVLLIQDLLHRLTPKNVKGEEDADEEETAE

Legend:
[1] = biological target: K11-linked diubiquitin (Homo sapiens) (UniProt P0CG48); test: NMR titration
[2] = biological target: K48-linked diubiquitin (Homo sapiens) (UniProt P0CG48); test: NMR titration

For Rpn1 391-642 (from UniProt P38764), the Kd [1] is listed as 28 µM and the Kd [2] is listed as 123 µM.
